The entries are a selection whose mix differs from that of the whole data set. Some structures show a salt or complex split into parts, the way the source records it. The source made the active and inactive calls.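 Rule for the calls: active = percent inhibition above a cutoff equal to the mean of all tested compounds plus 3 SD (cut at about 15% in these data); inactive = the rest.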
biological target: Protein-arginine deiminase type-4 (Homo sapiens) (UniProt Q9UM07); test: protein arginine deiminase 4 enzyme blockade – biochemical, fluorescence polarization, 1536-well format, primary screen (AID 485272); conditions: recombinant PAD4, RCA probe fluorescence polarization; at 6.36 µM; stronger effect = higher value;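 note: 0% = PAD4 with RCA probe and DMSO and 100% = probe without PAD4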

Protein sequences, listed by entry. Tags and fused reporters are not part of them.
UniProt Q9UM07, whole entry: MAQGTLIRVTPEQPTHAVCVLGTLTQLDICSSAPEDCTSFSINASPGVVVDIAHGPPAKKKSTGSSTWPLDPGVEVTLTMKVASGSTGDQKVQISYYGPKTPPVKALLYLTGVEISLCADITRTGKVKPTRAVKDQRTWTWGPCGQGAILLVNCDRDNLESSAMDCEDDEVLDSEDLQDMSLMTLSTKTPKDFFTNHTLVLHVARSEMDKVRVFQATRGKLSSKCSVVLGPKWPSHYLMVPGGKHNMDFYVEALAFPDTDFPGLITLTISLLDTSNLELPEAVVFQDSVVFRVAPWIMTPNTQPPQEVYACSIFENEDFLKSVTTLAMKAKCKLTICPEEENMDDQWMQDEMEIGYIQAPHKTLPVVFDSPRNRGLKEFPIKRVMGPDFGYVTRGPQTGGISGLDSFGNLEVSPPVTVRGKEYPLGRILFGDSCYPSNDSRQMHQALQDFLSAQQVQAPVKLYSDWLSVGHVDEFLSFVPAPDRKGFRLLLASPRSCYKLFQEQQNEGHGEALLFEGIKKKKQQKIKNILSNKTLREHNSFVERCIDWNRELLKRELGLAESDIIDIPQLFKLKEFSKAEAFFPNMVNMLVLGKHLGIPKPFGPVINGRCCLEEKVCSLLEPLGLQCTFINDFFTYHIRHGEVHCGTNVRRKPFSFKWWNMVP

SMILES	inhibition
COc1ccccc1OP(C)(=O)Nc1c(C)cccc1C (configuration not stated)	inactive: 1.21%
CN1CCCCC1COC(=O)C1(O)c2ccccc2CCc2ccccc21 (configuration not stated)	inactive: 0.6%
CP(=O)(Nc1ccc(SC(F)(F)F)cc1)Oc1ccccc1 (configuration not stated)	inactive: 2.93%
O=[N+]([O-])c1cc([N+](=O)[O-])c(Nc2nnnn2CCO)c([N+](=O)[O-])c1	inactive: -1.6%
CC1=C2N=C(C=C3N=C(C(C)=C4[N-][C@@](C)([C@@H]5N=C1[C@](C)(CCC(=O)NC[C@@H](C)OP(=O)([O-])O[C@H]1[C@@H](O)[C@@H](n6cnc7cc(C)c(C)cc76)O[C@@H]1CO)[C@H]5CC(N)=O)[C@@](C)(CC(N)=O)[C@@H]4CCC(N)=O)[C@@](C)(CC(N)=O)[C@@H]3CCC(N)=O)C(C)(C)[C@@H]2CCC(N)=O.[C-]#N.[Co+3]	active: 27.8%
CCOC(=O)C(CC)C1=NC(C)(C)Cc2ccccc21.O=[N+]([O-])c1cc([N+](=O)[O-])c(O)c([N+](=O)[O-])c1 (configuration not stated)	inactive: 0.52%
O=[N+]([O-])c1cc([N+](=O)[O-])c(-c2cnn(-c3ccccc3)c2)c([N+](=O)[O-])c1	inactive: -1.45%
Cc1nc2ccc3ccccc3c2s1.O=[N+]([O-])c1cc([N+](=O)[O-])c(O)c([N+](=O)[O-])c1	inactive: -1.58%
O=[N+]([O-])c1cc([N+](=O)[O-])c(-n2nnc3ccccc32)c([N+](=O)[O-])c1	inactive: -3.88%
Cc1ccc(C)c(NP(C)(=O)Oc2ccccc2)c1 (configuration not stated)	inactive: -1.36%
CP(=O)(Nc1cccc(Br)c1)Oc1ccccc1 (configuration not stated)	inactive: -2.61%
Cc1cc(C)cc(OP(C)(=O)Nc2ccccn2)c1 (configuration not stated)	inactive: -3.07%
COc1ccccc1OP(C)(=O)Nc1cccc(Br)c1 (configuration not stated)	inactive: 3.16%
CCOC(=O)c1ccc(NP(C)(=O)Oc2cc(C)cc(C)c2)cc1 (configuration not stated)	inactive: 3.23%
Cc1cc(C)cc(OP(C)(=O)Nc2ccc(C)cc2C)c1 (configuration not stated)	inactive: 3.09%
CC1=NCCc2c1[nH]c1ccccc21.O=[N+]([O-])c1cc([N+](=O)[O-])c(O)c([N+](=O)[O-])c1	inactive: 0.26%
O=C(O)c1cccc(Nc2c([N+](=O)[O-])cc([N+](=O)[O-])cc2[N+](=O)[O-])c1	inactive: -2.24%
COc1ccccc1OP(C)(=O)Nc1ccc(C)cc1 (configuration not stated)	inactive: 4.1%
Cc1ccc(NP(C)(=O)Oc2ccccc2)c(C)c1 (configuration not stated)	inactive: 1.63%
CCOC(=O)c1ccc(NP(C)(=O)Oc2ccccc2)cc1 (configuration not stated)	inactive: 0.92%
Cc1cc(C)cc(OP(C)(N)=O)c1 (configuration not stated)	inactive: -7.81%
COc1ccccc1OP(C)(=O)Nc1cc(Cl)ccc1C (configuration not stated)	inactive: -1.83%

SMILES	inhibition
COc1ccc(OP(C)(=O)Nc2cccc(F)c2)cc1 (configuration not stated)	inactive: 2.37%
O=[N+]([O-])c1cc([N+](=O)[O-])c(Nc2cccnc2)c([N+](=O)[O-])c1	inactive: -13.1%
O=[N+]([O-])c1ccc2c(c1)C=Nc1ccccc1O2	inactive: 9.97%
CC(C)(C)c1ccc(OP(C)(=O)Nc2ccc(SC(F)(F)F)cc2)cc1 (configuration not stated)	inactive: -0.75%
Cc1cccc(C)c1OP(C)(N)=O (configuration not stated)	inactive: -3.65%
CCN(CC)CCCOC(=O)C(O)(c1ccccc1)c1ccccc1	inactive: 1.21%
CCOC(=O)c1ccc(NP(C)(=O)Oc2ccc(OC)cc2)cc1 (configuration not stated)	inactive: -0.27%
O=[N+]([O-])c1cc([N+](=O)[O-])c(O)c([N+](=O)[O-])c1.c1ccc(Oc2ccncc2)cc1	inactive: -7.21%
CCOP(C)(=S)SCC(=O)NC(C)C(=O)O (configuration not stated)	inactive: -3.05%
CP(=O)(Nc1ccccn1)Oc1ccc(Cl)cc1 (configuration not stated)	inactive: 2.31%
Cc1cccc(C)c1OP(C)(=O)Nc1ccc(SC(F)(F)F)cc1 (configuration not stated)	inactive: 0.79%
CP(=O)(Nc1ccc(SC(F)(F)F)cc1)Oc1ccc(Cl)cc1 (configuration not stated)	inactive: 4.56%
CP(=O)(Oc1ccccc1)OC(c1ccccc1)C(F)(F)F (configuration not stated)	inactive: -3.65%
CCc1ccc(OP(C)(=O)N2CCN(c3ccc([N+](=O)[O-])cc3)CC2)cc1 (configuration not stated)	inactive: 2.29%
CP(=O)(NC(=O)Nc1ccccc1)Oc1ccccc1 (configuration not stated)	inactive: 2.37%
Cc1cc(C)cc(OP(C)(=O)Nc2ccc(SC(F)(F)F)cc2)c1 (configuration not stated)	inactive: 0.39%
CP(=S)(Nn1cnnc1)Oc1ccccc1 (configuration not stated)	inactive: -2.51%
CP(=O)(Nc1ccccc1Br)Oc1ccccc1 (configuration not stated)	inactive: -3.46%
COc1ccccc1OP(C)(=O)Nc1ccccc1 (configuration not stated)	inactive: -3.92%
Nc1ccc2c(ccc3cccnc32)n1.O=[N+]([O-])c1cc([N+](=O)[O-])c(O)c([N+](=O)[O-])c1	inactive: 2.47%
CCOC(=O)c1ccc(NP(C)(=O)Oc2ccc(Cl)cc2)cc1 (configuration not stated)	inactive: 1.99%
CP(=O)(OC12CC3CC(CC(C3)C1)C2)OC12CC3CC(CC(C3)C1)C2	inactive: 14.6%

SMILES	inhibition
CC(C)(C)c1ccc(OP(C)(=O)O)cc1	inactive: 6.4%
COc1ccccc1OP(C)(=O)Nc1ccccc1Br (configuration not stated)	inactive: -0.17%
CP(=O)(Nc1ccc(Cl)cc1)Oc1ccc(F)cc1 (configuration not stated)	inactive: 0.33%
CN(C)C(=O)c1c([N+](=O)[O-])cc([N+](=O)[O-])cc1[N+](=O)[O-]	inactive: -12%
CCN(CC)CC(O)COC(=O)C(O)(c1ccccc1)C1CCCCC1 (configuration not stated)	inactive: -2.75%
COc1ccc(OP(C)(=O)Nc2ccc(Br)cc2)cc1 (configuration not stated)	inactive: 2.47%
COc1ccccc1OP(C)(=O)Nc1c(C)n(C)n(-c2ccccc2)c1=O (configuration not stated)	inactive: 0.48%
O=C(OCCCN1CCCC1)C(O)(c1ccccc1)C1CCCCC1 (configuration not stated)	inactive: 4.23%
CP(=O)(Oc1ccccc1)N1CCOC1=O (configuration not stated)	inactive: -9.26%
CCc1ccc(OP(C)(=O)Nc2cccnc2)cc1 (configuration not stated)	inactive: -3.7%
O=[N+]([O-])c1cc([N+](=O)[O-])c(Nc2ccccn2)c([N+](=O)[O-])c1	active: 31.7%
Cc1c(NP(C)(=O)Oc2ccc(C(C)C)cc2)c(=O)n(-c2ccccc2)n1C (configuration not stated)	inactive: -3.04%
CP(=O)(Nc1ccccn1)Oc1ccccc1 (configuration not stated)	inactive: -3.15%
COc1ccccc1OP(C)(=O)Nc1ccc(C)cc1C (configuration not stated)	inactive: 4.1%
CCc1ccc(OP(C)(=O)O)cc1	inactive: -2.83%
COc1ccccc1OP(C)(=O)Nc1ccc(Br)cc1 (configuration not stated)	inactive: -5.46%
COc1ccc(OP(C)(=O)Nc2ccccn2)cc1 (configuration not stated)	inactive: -0.07%
CN(C)CCOC(=O)C(O)(c1ccccc1)C1CCCC1 (configuration not stated)	inactive: -0.13%
Cc1nc2ccc3ccccc3c2o1.O=[N+]([O-])c1cc([N+](=O)[O-])c(O)c([N+](=O)[O-])c1	inactive: -10.5%
CP(=O)(OCCOc1ccccc1)OCCOc1ccccc1	inactive: -4.44%
CP(=O)(Nc1ccc(Cl)cc1Cl)Oc1ccccc1 (configuration not stated)	inactive: -1.26%
Cc1cc(C)cc(OP(C)(=O)Nc2cccc(C(F)(F)F)c2)c1 (configuration not stated)	inactive: 0.05%

SMILES	inhibition
COc1ccccc1OP(C)(=O)Nc1ccc(C)c(C)c1 (configuration not stated)	inactive: -3.98%
COc1ccc(OP(C)(=O)Nc2ccccc2Br)cc1 (configuration not stated)	inactive: 1.05%
CCN(CC)CCCOC(=O)C(O)(c1ccccc1)C1CCCCC1 (configuration not stated)	inactive: -1.45%
CP(=O)(Nc1ccccc1)Oc1ccc(F)cc1 (configuration not stated)	inactive: -0.53%
O=[N+]([O-])c1cc([N+](=O)[O-])c(OC2CCCCC2O)c([N+](=O)[O-])c1 (configuration not stated)	inactive: -0.17%
CCCCCOc1ccc(NP(C)(=O)Oc2ccc(Cl)cc2Cl)cc1 (configuration not stated)	inactive: -0.75%
CCOC(=O)c1ccc(NP(C)(=O)Oc2ccc(F)cc2)cc1 (configuration not stated)	inactive: 3.36%
COc1ccc(OP(C)(=O)Nc2ccc(SC(F)(F)F)cc2)cc1 (configuration not stated)	inactive: -0.42%
O=C(OC1CN2CCC1CC2)c1ccc([N+](=O)[O-])cc1 (configuration not stated)	inactive: -2.83%
O=C(OCCN1CCN(CCOCc2ccccc2)CC1)C(O)(c1ccccc1)c1ccccc1	inactive: -3.74%
COc1ccc2c(c1O)-c1c(O)c(OC)cc3c1[C@H](C2)[N+](C)(C)CC3.O=[N+]([O-])c1cc([N+](=O)[O-])c([O-])c([N+](=O)[O-])c1[O-]	inactive: -3.57%
CP(=O)(Nc1ccccc1F)Oc1ccccc1 (configuration not stated)	inactive: 3.62%
CC(C)c1ccc(OP(C)(=O)Nc2ccc(SC(F)(F)F)cc2)cc1 (configuration not stated)	inactive: 2.01%
CP(=O)(Nc1ccc2c(c1)OCCO2)Oc1ccccc1 (configuration not stated)	inactive: 0.13%
Cc1ccccc1NP(C)(=O)Nc1ccccc1C	inactive: -0.06%
CP(=O)(Nc1ccc(SC(F)(F)F)cc1)Oc1ccc(F)cc1 (configuration not stated)	inactive: -1.59%
CCOP(C)(=S)SCC(=O)NC(C)(CC)C(=O)O (configuration not stated)	inactive: 0.37%
O=[N+]([O-])c1cc([N+](=O)[O-])c(NCC2CCS(=O)(=O)C2)c([N+](=O)[O-])c1 (configuration not stated)	inactive: -4.67%
COc1ccc(OP(C)(=O)Nc2cccc(Br)c2)cc1 (configuration not stated)	inactive: 3.42%
CN(C)CCOC(=O)C(O)(c1ccccc1)C1CCCCC1 (configuration not stated)	inactive: -2.76%
COc1ccc(NP(C)(=O)Oc2ccccc2OC)cc1 (configuration not stated)	inactive: 1.88%

— PubChem BioAssay AID485272 (The Scripps Research Institute Molecular Screening Center, 2010)
